Results from patent publication US11472877 (Alector, dated 2022).

Chains of the proteins cited; added tags and fusions are not shown. A line that says so, or that is headed by a name, gives the form on record, which may keep a tag or linker. Residues count along the entry.
UniProt Q9NP99, 21-234: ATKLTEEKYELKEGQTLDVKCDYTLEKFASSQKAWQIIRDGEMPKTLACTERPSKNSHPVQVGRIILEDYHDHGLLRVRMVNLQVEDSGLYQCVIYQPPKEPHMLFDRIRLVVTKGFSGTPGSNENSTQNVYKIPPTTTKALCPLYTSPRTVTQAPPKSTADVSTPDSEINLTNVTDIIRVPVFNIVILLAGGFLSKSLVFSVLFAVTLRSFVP
UniProt Q9NP99, 21-205 limits assumed, form in doubt: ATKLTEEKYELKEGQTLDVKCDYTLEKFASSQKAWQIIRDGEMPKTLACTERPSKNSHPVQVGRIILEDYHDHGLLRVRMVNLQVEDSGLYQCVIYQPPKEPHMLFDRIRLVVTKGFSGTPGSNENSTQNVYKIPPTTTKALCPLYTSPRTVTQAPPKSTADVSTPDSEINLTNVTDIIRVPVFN

T1: mouse TREM2 on BWZ cells (mouse, UniProt Q99NH8 19-227)
T1 construct: whole, on cells; also called BWZ Mouse TREM2
T1 sequence (looked up): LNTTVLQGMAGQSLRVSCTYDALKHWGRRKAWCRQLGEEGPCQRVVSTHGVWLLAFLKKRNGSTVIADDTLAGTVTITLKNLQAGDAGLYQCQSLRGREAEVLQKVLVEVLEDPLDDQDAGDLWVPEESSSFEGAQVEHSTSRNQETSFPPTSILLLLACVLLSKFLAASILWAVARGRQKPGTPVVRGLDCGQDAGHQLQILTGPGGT

T2: human TREM2 on BWZ cells (human, UniProt Q9NZC2 19-230)
T2 construct: whole, on cells; not tied to the cell line; also called BWZ Human TREM2
T2 sequence (looked up): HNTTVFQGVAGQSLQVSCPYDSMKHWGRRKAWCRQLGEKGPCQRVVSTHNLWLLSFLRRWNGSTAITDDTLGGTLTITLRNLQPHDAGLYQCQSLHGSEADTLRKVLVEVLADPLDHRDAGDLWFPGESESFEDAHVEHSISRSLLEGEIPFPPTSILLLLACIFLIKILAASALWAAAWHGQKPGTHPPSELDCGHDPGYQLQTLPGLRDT

T3: mouse TREM1 on CHO cells (mouse, UniProt Q9JKE2 21-230)
T3 construct: also called CHO-mT1
T3 sequence: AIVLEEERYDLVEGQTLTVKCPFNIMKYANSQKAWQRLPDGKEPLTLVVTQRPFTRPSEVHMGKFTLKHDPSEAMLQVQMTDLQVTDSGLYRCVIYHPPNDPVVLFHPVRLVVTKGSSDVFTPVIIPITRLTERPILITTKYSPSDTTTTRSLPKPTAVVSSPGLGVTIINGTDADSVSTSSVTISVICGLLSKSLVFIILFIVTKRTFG


What was measured:
human TREM1 on cells [1] = target: T4, human TREM1 on cells (human, UniProt Q9NP99 21-234); experiment: FACS ligand blocking on CHO-huTREM1, 10 ug/mL IgG; competitor hPGLYRP1/PGN-BS
T4 construct: Some reporter cells carry a human TREM1/CD3 zeta fusion instead; also called CHO-huT1; CHO-hT1

human TREM1 on cells [2] = target: T4, human TREM1 on cells; experiment: FACS, human neutrophils
mouse TREM2 on BWZ cells = target: T1, mouse TREM2 on BWZ cells; experiment: FACS, BWZ mouse TREM2
human TREM2 on BWZ cells = target: T2, human TREM2 on BWZ cells; experiment: FACS, BWZ human TREM2
human TREM1 on cells [3] = target: T4, human TREM1 on cells; experiment: FACS, CHO human TREM1
human TREM1 on cells [4] = target: T4, human TREM1 on cells; experiment: cell-based or functional assay
mouse TREM1 on CHO cells = target: T3, mouse TREM1 on CHO cells; experiment: FACS, CHO mouse TREM1
human TREM1 = human TREM1 (human, UniProt Q9NP99 21-205, limits assumed); experiment: IgG, monovalent; method and antigen form not stated

Binder	% ligand binding blocked (human TREM1 on cells [1])	FOB Fold Over Background (human TREM1 on cells [2])	FOB Fold Over Background (mouse TREM2 on BWZ cells)	FOB Fold Over Background (human TREM2 on BWZ cells)	FOB Fold Over Background (human TREM1 on cells [3])	GFP expression, NFAT-GFP reporter cells expressing human TREM1, soluble antibody (human TREM1 on cells [4])	FOB Fold Over Background (mouse TREM1 on CHO cells)	cell surface levels of TREM1, primary human neutrophils, FACS (human TREM1 on cells [4])	neutrophil viability (ATP) with ligand complex, relative to PGN-BS alone (human TREM1 on cells [4])	Kd (human TREM1)	koff (human TREM1)	kon (human TREM1)	metabolically active cells (ATP, CellTiter-Glo), primary human monocytes (human TREM1 on cells [4])	metabolically active cells (ATP, CellTiter-Glo), primary human neutrophils (human TREM1 on cells [4])
T1-70 (antibody, IgG1, V domains shown, huIgG1; also called TI-70; ADI-19146) VH: QVQLVQSGAEVKKPGASVKVSCKASGYTFTSYGIHWVRQAPGQGLEWMGWISAYNGNTNYAQKLQGRVTMTTDTSTSTAYMELRSLRSDDTAVYYCARAGTIYGRLDLWGRGTLVTVSS VL: DIQLTQSPSSVSASVGDRVTITCRASQDISSWLAWYQQKPGKAPKLLIYAASSLQSGVPSRFSGSGSGTDFTLTISSLQPEDFATYYCQQAVSHPLTFGGGTKVEIK	≥ 85%	2.2 fold	0.9 fold	0.9 fold	405 fold	≥ 3 fold	1.2 fold	–	–	–	–	–	–	–
T1-71 (antibody, IgG1, V domains shown, huIgG1; also called TI-71; ADI-19147) VH: EVQLVESGGGLVQPGRSLRLSCAASGFTFGDYAMHWVRQAPGKGLEWVSGISWNSGSIGYADSVKGRFTISRDNAKNSLYLQMNSLRAEDTALYYCAKGPRRTSHLDIWGQGTMVTVSS VL: DIQMTQSPSSVSASVGDRVTITCRASQGIDSWLAWYQQKPGKAPKLLIYAASSLQSGVPSRFSGSGSGTDFTLTISSLQPEDFATYYCQQATSLPLTFGGGTKVEIK	≥ 85%	6.3 fold	1 fold	1.1 fold	507 fold	≥ 3 fold	–	≥ 65%	~50%	21.8 nM	0.0186 s⁻¹	854000 M⁻¹ s⁻¹	–	–
T1-72 (antibody, IgG1, V domains shown, huIgG1; also called TI-72; ADI-19148) VH: EVQLVESGGGLVQPGRSLRLSCAASGFTFDDYAMHWVRQAPGKGLEWVSGISWNSGDIGYADSVKGRFTISRDNAKNSLYLQMNSLRAEDTALYYCAKGPRMTHSYFDLWGRGTLVTVSS VL: not shown	≥ 85%	5.2 fold	1.3 fold	1.3 fold	504 fold	≥ 3 fold	1.2 fold	–	–	–	–	–	–	–
T1-73 (antibody, IgG1, V domains shown, huIgG1; also called TI-73; ADI-19149) VH: EVQLVESGGGLVQPGRSLRLSCAASGFTFDDYAMHWVRQAPGKGLEWVSGISWNSGSIGYADSVKGRFTISRDNAKNSLYLQMNSLRAEDTALYYCAKAPRMYGYFDLWGRGTSVTVSS VL: DIQMTQSPSTLSASVGDRVTITCRASQSISSWLAWYQQKPGKAPKLLIYKASSLESGVPSRFSGSGSGTEFTLTISSLQPDDFATYYCQQYRTYPTFGGGTKVEIK	≥ 85%	3.7 fold	0.9 fold	1 fold	479 fold	≥ 3 fold	1.2 fold	–	–	–	–	–	–	–
T1-74 (antibody, IgG1, V domains shown, huIgG1; also called TI-74; ADI-19151) VH: EVQLVESGGGLVQPGRSLRLSCAASGFTFDDYAMHWVRQAPGKGLEWVSGISWNSGSIGYADSVKGRFTISRDNAKNSLYLQMNSLRAEDTALYYCAKGPRTRGYFDLWGRGTLVTVSS VL: DIQMTQSPSTLSASVGDRVTITCRASQSISSWLAWYQQKPGKAPKLLIYKASSLESGVPSRFSGSGSGTEFTLTISSLQPDDFATYYCQQHSLLSITFGGGTKVEIK	≥ 85%	3.9 fold	0.9 fold	0.7 fold	499 fold	≥ 3 fold	–	–	–	13.5 nM	0.0136 s⁻¹	1.01e+06 M⁻¹ s⁻¹	–	–
T1-75 (antibody, IgG1, V domains shown, huIgG1; also called TI-75; ADI-19152) VH: QVQLVESGGGLVQPGRSLRLSCAASGFTFDDYAMHWVRQAPGKGLEWVSGISWNSGDIGYADSVKGRFTISRDNAKNSLYLQMNSLRAEDTALYYCAKAPRTRWTYFDYWGQGTLVTVSS VL: EIVLTQSPATLSLSPGERATLSCRASQSVSSYLAWYQQKPGQAPRLLIYDASNRATGIPARFSGSGSGTDFTLTISSLEPEDFAVYYCQHYNLWRTFGGGTKVEIK	≥ 85%	3 fold	1.1 fold	1 fold	428 fold	≥ 3 fold	1.1 fold	≥ 65%	–	–	–	–	–	–
T1-33 (antibody, IgG1, V domains shown, huIgG1; also called TI-33; ADI-19107) VH: QVQLVESGGGVVQPGRSLRLSCAASGFTFSNYGMHWVRQAPGKGLEWVAVIWYDGSNKYYADSVKGRFTISRDNSKNTLYLQMNSLRAEDTAVYYCAKGSTHRGSAYGMDVWGQGTTVTVSS VL: DIQMTQSPSSVSASVGDRVTITCRASQGISSWLAWYQQKPGKAPKLLIYAASSLQSGVPSRFSGSGSGTDFTLTISSLQPEDFATYYCQQINDHPFTFGGGTKVEIK	–	3.3 fold	1.9 fold	0.8 fold	464 fold	–	22.5 fold	≥ 65%	–	37.3 nM	0.0204 s⁻¹	546000 M⁻¹ s⁻¹	–	–
T1-34 (antibody, IgG1, V domains shown, huIgG1; also called TI-34; ADI-19108) VH: EVQLVESGGGLVKPGGSLRLSCAASGFTFSSYSMNWVRQAPGKGLEWVSSISSSSNYIYYADSVKGRFTISRDNAKNSLYLQMNSLKAEDTAVYYCARRPDDRRGLFQHWGQGTLVTVSS VL: DIQMTQSPSTLSASVGDRVTITCRASQSINSWLAWYQQKPGKAPKLLISDASSLESGVPSRFSGSGSGTEFTLTISSLQPDDFATYYCQQYGPYPYTFGGGTKVEIK	–	3.6 fold	1.3 fold	0.8 fold	511 fold	–	159 fold	≥ 65%	~60%	8.29 nM	0.000642 s⁻¹	77500 M⁻¹ s⁻¹	–	–
recombinant, His-tagged human PGLYRP1 (ligand, UniProt O75594 22-196, looked up, not shown: small tags and cut ends) QETEDPACCSPIVPRNEWKALASECAQHLSLPLRYVVVSHTAGSSCNTPASCQQQARNVQHYHMKTLGWCDVGYNFLIGEDGLVYEGRGWNFTGAHSGHLWNPMSIGISFMGNYMDRVPTPQAIRAAQGLLACGVAQGALRSNYVLKGHRDVQRTLSPGNQLYHLIQNWPHYRSP	–	–	–	–	–	–	–	–	–	–	–	–	~3 fold	~1.5 fold
T1-69 (antibody, IgG1, V domains shown, huIgG1; also called TI-69; ADI-19145) VH: QVQLVQSGAEVKKPGASVKVSCKASGYTFTSYGISWVRQAPGQGLEWMGWISAYNGNTNYAQKLQGRVTMTTDTSTSTAYMELRSLRSDDTAVYYCARGAGMYDGSPLGMDVWGQGTTVTVSS VL: DIQMTQSPSSVSASVGDRVTITCRASQGISSWLAWYQQKPGKAPKLLIYAASNLQSGVPSRFSGSGSGTDFTLTISSLQPEDFATYYCQQATAHPPTFGGGTKVEIK	≥ 85%	5.5 fold	0.9 fold	0.9 fold	464 fold	–	1.5 fold	–	–	34.7 nM	0.00977 s⁻¹	282000 M⁻¹ s⁻¹	–	–
T1-78 (antibody, IgG1, V domains shown, huIgG1; also called TI-78; ADI-19155) VH: QLQLQESGPGLVKPSETLSLTCTVSGGSISSSSYYWGWIRQPPGKGLEWIGSIYYSGSTYYNPSLKSRVTISVDTSKNQFSLKLSSVTAADTAVYYCARDLGQYEGYFDLWGRGTLVTVSS VL: not shown	≥ 50%	6.2 fold	1.2 fold	1.2 fold	405 fold	–	1.1 fold	–	–	46.4 nM	0.0074 s⁻¹	160000 M⁻¹ s⁻¹	–	–
T1-79 (antibody, IgG1, V domains shown, huIgG1; also called TI-79; ADI-19156) VH: QLQLQESGPGLVKPSETLSLTCTVSGGSISSSSYYWGWIRQPPGKGLEWIGSIYYSGSTYYNPSLKSRVTISVDTSKNQFSLKLSSVTAADTAVYYCARLGDGYRIWADYWGQGTLVTVSS VL: not shown	≥ 50%	4.5 fold	1.2 fold	1.8 fold	426 fold	–	1.1 fold	–	–	40 nM	0.00478 s⁻¹	119000 M⁻¹ s⁻¹	–	–
